Values of other authors in US8496960B2, “Terazosin transdermal device and methods” (Purdue Pharma L.P., priority 2001, dated 2013).

Conditions: following oral administration

COc1cc2nc(N3CCN(C(=O)C4CCCO4)CC3)nc(N)c2cc1OC (stereo not shown) [terazosin]
absorption: almost completely absorbed
